Antibody variant affinities, Ab-14 heavy chain, assay 1

The target is the same throughout: PDVDLGDISGINAS, from the HR2 region of SARS-CoV-2 spike.

Each scFv is VH, a (GGGGS)3 linker, VL, as in the parent Ab-14, and differs from it in the CDRs of the heavy chain only.
VH: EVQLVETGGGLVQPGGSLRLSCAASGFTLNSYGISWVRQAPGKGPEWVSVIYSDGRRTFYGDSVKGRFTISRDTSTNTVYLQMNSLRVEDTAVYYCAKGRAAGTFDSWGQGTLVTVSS
VL: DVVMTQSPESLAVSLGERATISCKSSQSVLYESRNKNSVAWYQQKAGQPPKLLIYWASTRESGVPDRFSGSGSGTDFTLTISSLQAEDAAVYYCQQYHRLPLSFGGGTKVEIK

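Phage display of a naive human antibody library on the peptide gave the parent. AAYL49 was designed without a model: most single CDR substitutions and a random sample of double and triple ones. In AlphaSeq, yeast of one mating type display the scFv and yeast of the other type display the target. Mating (16 h, 30 °C) was followed by selection of diploids and sequencing of their barcodes. Read counts were normalised to the haploid input and turned into Kd by a linear fit to BCL2-family pairs of known affinity, for each replicate. Mating was done three times.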

Substitutions are numbered in sequence along the VH above, starting at 1 (not Kabat). All variants listed here change S53 of the VH, counted from its first residue. Affinities are written as log10 Kd with Kd in nM; a lower number is a better binder. Averages over replicates are reported, and they cover detected replicates only. "ND" means that the variant was in the library but no mating with the target was seen in that replicate; the authors take this as a sign of poor binding, and no number exists. In this assay the parent's reference entry averaged 0.65; its copy inside this library read 4.11 (one replicate of three). Background: pairings of library AAYL49 with three empty control strains gave a value in 15% of cases (median 4.06, 5th percentile 2.83). Values in that range, when seen in few replicates, are hard to tell from nonspecific mating.

* T28E/S53R/G55Y -> ND, ND, ND
* S53V/D62S -> ND, ND, ND
* L29P/S53K/T58E -> ND, ND, ND
* Y32E/S53F/R56E -> ND, ND, ND
* L29D/S53D/T104N -> ND, ND, ND
* S53F/G61E/A102V -> 4.93, 3.19, 3.30 (mean 3.80)
* G33R/S53N/F59M -> ND, ND, ND
* G33C/S53D/Y60M -> ND, ND, 4.93
* Y32H/S53T/A102D -> ND, ND, ND
* G33H/S53P/D106Y -> 4.45, ND, ND
* S53D/A101W/S107E -> ND, 3.80, ND
* S53P/S63F/S107C -> 2.84, 1.82, 2.15 (mean 2.27)
* I34A/S53V/F59R -> 3.95, ND, ND
* S31N/I34C/S53I -> ND, ND, ND
* L29Q/S53F/G103A -> ND, ND, ND
* S53Q/G61Y/D62H -> ND, ND, ND
* S53Q/G103C/D106H -> 2.62, 2.24, 2.48 (mean 2.44)
* I51S/S53W/R57Q -> ND, 3.58, ND
* Y32P/S35P/S53Y -> ND, ND, ND
* S35M/S53D/K65N -> ND, 3.52, 5.24 (mean 4.38)
* S53M/S63A/T104R -> ND, ND, ND
* S31V/S35G/S53N -> ND, ND, ND
* S53N/G55S/V64L -> ND, ND, ND
* S53F/V64W/G99M -> ND, ND, ND
* S53V/G55D/F59V -> 4.41, 4.39, ND (mean 4.40)
* S53T/V64H/D106L -> 3.69, 3.36, 3.96 (mean 3.67)
* I34S/S53R -> ND, ND, ND
* G26W/S53W -> ND, ND, ND
* S53P/R56L/S107M -> 2.71, 2.91, 2.68 (mean 2.76)
* N30Q/I51G/S53F -> 2.98, ND, ND
* S53G/F59K/G61M -> ND, 4.07, 3.96 (mean 4.01)
* G26H/S53Y/R56I -> 4.22, 2.70, ND (mean 3.46)
* S53H/T58S/F105L -> ND, ND, ND
* S53T/V64R/T104S -> 4.73, ND, ND
* G33Y/S53Y/G103I -> ND, ND, ND
* F27Q/S53N/A102H -> ND, ND, ND
* Y52P/S53C/A101T -> ND, ND, ND
* S31Y/S53W/D54Y -> ND, ND, 4.12
* S53R/V64C/T104N -> ND, ND, ND
* S31E/S53F/S107L -> 0.36, 0.68, 0.60 (mean 0.55)
* Y52H/S53C/D62S -> ND, ND, ND
* S53M/D54F/D62T -> ND, ND, ND
* Y32I/I51C/S53T -> ND, ND, ND
* S53F/R57L/F105T -> ND, ND, ND
* S31K/S53Q/F59W -> ND, 4.44, ND
* Y32C/S53V -> ND, 1.84, ND

Repeated from above, the 3 best binders with a signal in all replicates:

changes,log10 Kd (nM) by replicate,"log10 Kd (nM), mean"
S31E/S53F/S107L,"0.36, 0.68, 0.60",0.55
S53P/S63F/S107C,"2.84, 1.82, 2.15",2.27
S53Q/G103C/D106H,"2.62, 2.24, 2.48",2.44

Reference: Engelhart et al. 2022, doi:10.1038/s41597-022-01779-4. File: FLAb, binding data.